# Laboratory results reported in PubChem BioAssay AID2796 (The Scripps Research Institute Molecular Screening Center, 2010).
# Amino acid sequences for entries named in this document (tags omitted). A change or cut given only in a name is not applied to a line headed by its entry.
# UniProt P35869: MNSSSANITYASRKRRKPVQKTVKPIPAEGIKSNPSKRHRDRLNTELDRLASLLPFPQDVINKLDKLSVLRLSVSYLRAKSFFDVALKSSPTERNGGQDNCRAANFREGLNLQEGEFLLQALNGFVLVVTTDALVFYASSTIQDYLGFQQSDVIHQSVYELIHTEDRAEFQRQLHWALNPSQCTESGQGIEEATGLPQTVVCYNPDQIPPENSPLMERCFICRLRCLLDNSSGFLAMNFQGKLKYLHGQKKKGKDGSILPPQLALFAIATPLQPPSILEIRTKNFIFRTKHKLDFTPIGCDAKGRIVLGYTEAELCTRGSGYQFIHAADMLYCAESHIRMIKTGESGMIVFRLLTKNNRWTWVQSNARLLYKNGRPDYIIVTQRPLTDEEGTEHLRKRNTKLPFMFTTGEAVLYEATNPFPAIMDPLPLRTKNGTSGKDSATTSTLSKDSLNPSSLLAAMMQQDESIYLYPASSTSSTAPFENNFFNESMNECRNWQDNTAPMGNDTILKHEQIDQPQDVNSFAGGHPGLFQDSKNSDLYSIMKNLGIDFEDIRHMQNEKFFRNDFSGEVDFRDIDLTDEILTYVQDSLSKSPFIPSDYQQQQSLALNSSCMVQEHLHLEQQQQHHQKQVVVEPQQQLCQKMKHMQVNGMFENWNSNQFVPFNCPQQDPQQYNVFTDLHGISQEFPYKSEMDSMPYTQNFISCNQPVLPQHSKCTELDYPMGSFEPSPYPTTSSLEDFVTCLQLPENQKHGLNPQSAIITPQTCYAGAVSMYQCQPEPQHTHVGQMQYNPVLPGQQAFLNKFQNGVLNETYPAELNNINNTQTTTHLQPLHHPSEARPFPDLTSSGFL
# This is a selection; strong and weak results do not stand in their true shares. Active and inactive are the calls of the source. No stated cut-off is given here; in the data, active means activation above about 47%; inactive means the rest.
# Target: Aryl hydrocarbon receptor (Homo sapiens) (UniProt P35869)
# Test: AHR activators, primary screen, cell-based, luminescence, luciferase reporter, human (AID 2796);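 further: 0% = vehicle wells and 100% = reference agonist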
# Conditions: AHR-responsive luciferase reporter cells, at 5 µM, stronger effect = higher value
row,Structure (SMILES),activation
1,N#CCCN(C(=O)COC(=O)C(O)(c1ccccc1)c1ccccc1)c1ccc(F)cc1,inactive: -3.14%
2,CCOP1(=S)c2c(C)nn(CCC#N)c2N=C(c2ccc(F)cc2)N1C (stereo unspecified),inactive: -0.36%
3,CN(C(=O)Cc1ccccc1)[C@@H]1CC[C@]2(CCCO2)C[C@H]1N1CCCC1,inactive: 0.01%
4,CN(C)C(=O)c1cc([N+](=O)[O-])cc2c1-c1c(cc([N+](=O)[O-])cc1[N+](=O)[O-])C2=O,inactive: 2.34%
5,O=[N+]([O-])c1ccc2c(c1)nnn2O,inactive: 0.69%
6,CN(C(=O)Cc1ccc(Cl)c(Cl)c1)[C@H]1CC[C@@]2(CCCO2)C[C@@H]1N1CCCC1,inactive: -1.19%
7,NC(=O)Nc1ccc([As](=O)(O)O)cc1,inactive: 0.51%
8,Nc1ccccc1[As](=O)(O)c1ccccc1,inactive: -0.65%
9,O=C(O)COc1ccc([As](=O)(O)O)cc1[N+](=O)[O-],inactive: 0.22%
10,CCOP1(=S)c2c(C)nn(CCC#N)c2N=C(c2ccccc2F)N1C (stereo unspecified),inactive: 0.21%
11,O=P(Nc1nccs1)(c1ccccc1)c1nc2ccccc2s1 (stereo unspecified),inactive: 8.55%
12,O=P(Nc1nccs1)(Oc1ccccc1)Oc1ccccc1,inactive: -0.56%
13,CS(=O)(=O)c1cc([N+](=O)[O-])c2no[n+]([O-])c2c1,inactive: 0.54%
14,COc1cc(C2NCCC3(OCCO3)C2(C)C)cc(OC)c1OC (stereo unspecified),inactive: 2.31%
15,CCOP(=O)(Nc1cccc2ccccc12)OCC,inactive: 4.11%
16,Nc1cccc2c([As](=O)(O)O)cccc12,inactive: -1.25%
17,Cc1ccc(NCCc2c([N+](=O)[O-])cc([N+](=O)[O-])cc2[N+](=O)[O-])cc1,inactive: 3.29%
18,CCCOP(=S)(Nc1nc(N)cc(=O)[nH]1)OCCC,inactive: -0.46%
19,O=[As](O)(c1cccc(O)c1)c1cccc(O)c1,inactive: -2.67%
20,Cc1cccc(OCC(=O)OC2CN3CCC2CC3)c1 (stereo unspecified),inactive: 0.93%
21,O=C(OC1CN2CCC1CC2)c1ccc(Cl)cc1 (stereo unspecified),inactive: -0.55%
22,COc1cc(C(=O)NCC2(N3CCOCC3)CCCCC2)cc(Cl)c1OC(C)C,inactive: 11%
23,O=[As](O)(O)c1cccnc1,inactive: -0.61%
24,CS(=O)(=O)c1ccc(Cl)c(NC(=O)COC(=O)C(O)(c2ccccc2)c2ccccc2)c1,inactive: -1.08%
25,CC(C)/C=N\N=C(\N)N[N+](=O)[O-],inactive: 6.2%
26,CN(C(=O)Cc1ccc(Cl)c(Cl)c1)[C@@H]1CCCC[C@H]1N1CCCC1,inactive: -3.31%

row,Structure (SMILES),activation
1,O=[As](O)(c1ccccc1Br)c1ccccc1Br,inactive: 0.41%
2,CC1(CBr)Cn2c(nc3ccccc3c2=O)S1 (stereo unspecified),inactive: 0.56%
3,COc1ccccc1CNC(=O)COC(=O)C(O)(c1ccccc1)c1ccccc1,inactive: -0.72%
4,Clc1n[nH]nc1-c1nn[nH][15n]1,inactive: 0.55%
5,CC(C)(C)C(=O)NC(Sc1ncccn1)C(Cl)(Cl)Cl (stereo unspecified),inactive: -0.84%
6,O=P1(Nc2ccccn2)COc2ccccc2OC1,inactive: -3.65%
7,CCC1=CC2Cc3nc4ccc(Cl)cc4c(N)c3C(C1)C2 (stereo unspecified),inactive: 6.57%
8,CCOP(=O)(NC(=NC(C)c1ccccc1)NC(C)c1ccccc1)OCC (stereo unspecified),inactive: -1.25%
9,CN(CCCl)Cc1cc(Cl)c(NC2=NCCN2)c(Cl)c1,inactive: -3.42%
10,CCOP(=O)(Nc1ccc(C)cn1)OCC,inactive: 4.2%
11,Nc1cccc([As](=O)(O)c2ccccc2)c1,inactive: 1.04%
12,O=P1(Nc2ccc(Br)cn2)COc2ccccc2OC1,inactive: 0.31%
13,NS(=O)(=O)c1cccc(NC(=O)COC(=O)C(O)(c2ccccc2)c2ccccc2)c1,inactive: 8.13%
14,O=[As](O)(c1cccs1)c1cccs1,inactive: 3.69%
15,Cc1ccc(OCC(=O)OC2CN3CCC2CC3)cc1 (stereo unspecified),inactive: 1.68%
16,O=P1(Nc2ncccn2)COc2ccccc2OC1,inactive: 1.41%
17,CN(C)C1(CNC(=O)c2ccc(S(C)(=O)=O)cc2)CCCCC1,inactive: 1.07%
18,O=C(/C=C/c1ccccc1)OC1CN2CCC1CC2 (stereo unspecified),inactive: 2.88%
19,Cc1nn(-c2ccccc2)c2c1P(=O)(N1CCOCC1)N(C)C(c1ccccc1)=N2 (stereo unspecified),inactive: -0.21%
20,CC1CCC(C(C)C)C(OP(=O)(Nc2ccccn2)c2ccccc2)C1 (stereo unspecified),inactive: 1.98%
21,Cc1ccc(C(=O)OC2CN3CCC2CC3)cc1 (stereo unspecified),inactive: -0.06%
22,O=P(Nc1ccccn1)(c1cccc2ccccc12)c1cccc2ccccc12,inactive: -1.25%
23,Cc1cc(SC(NC=O)C(Cl)(Cl)Cl)ncn1 (stereo unspecified),inactive: 3.07%
24,CCOC(=O)Nc1cccc([As](=O)(O)O)c1,inactive: -1.76%
25,Cc1cc(SC(NC(=O)c2ccccc2)C(Cl)(Cl)Cl)nc(C(C)C)n1 (stereo unspecified),inactive: 3.95%
26,CCOC(=O)Nc1ccc([As](=O)(O)O)c(O)c1,inactive: -1.39%

row,Structure (SMILES),activation
1,CCC(C)N(CC(C)C)C(=S)SC(NC(C)=O)C(Cl)(Cl)Cl (stereo unspecified),inactive: 1.35%
2,O=C(OC1CN2CCC1CC2)c1cccc([N+](=O)[O-])c1 (stereo unspecified),inactive: -0.18%
3,CCOC(=O)c1ccc(NC(=O)C(C)(CCl)SC)cc1 (stereo unspecified),inactive: 3.05%
4,O=C(COc1ccccc1)OC1CN2CCC1CC2 (stereo unspecified),inactive: 0.19%
5,O=C(Nc1ccncc1[N+](=O)[O-])c1ccc([N+](=O)[O-])cc1[N+](=O)[O-],inactive: 1.78%
6,COP1(=S)c2c(C)nn(CCC#N)c2N=C(c2ccc(F)cc2)N1C (stereo unspecified),inactive: 0.99%
7,COc1ccc(N/C(=N/P(=O)(N2CCOCC2)N2CCOCC2)N2CCOCC2)cc1,inactive: 0.83%
8,COc1ccc2nc(NP(=O)(c3ccccc3)c3ccccc3)sc2c1,inactive: 8.55%
9,COc1cc(I)ccc1[As](=O)(O)O,inactive: -0.25%
10,Cc1c2c(nc3ccccc13)SC(C(Cl)Cl)C2 (stereo unspecified),inactive: 5.51%
11,O=C(OC1CN2CCC1CC2)C12CC3CC(CC(C3)C1)C2 (stereo unspecified),inactive: 5.86%
12,Cc1cc(=O)[nH]c(N[N+](=O)[O-])n1,inactive: 2.32%
13,CCN(CC)C(=S)SC(NC=O)C(Cl)(Cl)Cl (stereo unspecified),inactive: -1.01%
14,CC(C)NC(=O)NP(=O)(Oc1ccccc1)Oc1ccccc1,inactive: 3.19%
15,O=[N+]([O-])c1cc([N+](=O)[O-])c(-c2ccn[nH]2)s1,inactive: 44.4%
16,ClCCSc1nnc(-c2cccnc2)o1,inactive: 1.41%
17,CC(C)c1ccc(OP(=O)(Nc2ccccn2)Oc2ccccc2F)cc1 (stereo unspecified),inactive: 2.25%
18,Cc1ccc(OP(=O)(Nc2ccc([N+](=O)[O-])cn2)Oc2ccc(C)cc2)cc1,inactive: -0.53%
19,Cc1ccc2nc3c(c(C)c2c1)CC(C(Cl)Cl)S3 (stereo unspecified),inactive: 12.1%
20,O=[As](O)(c1ccc(O)cc1)c1ccccc1O,inactive: 1.38%
21,C[As](=O)(O)c1cccc(C(=O)O)c1,inactive: 1.61%
22,COc1cc(C(=O)NCC2(N3CCOCC3)CCCCC2)ccc1OCC(C)C,inactive: 2.87%
23,CCN(N=Nc1nonc1N)c1nonc1N,inactive: 1.39%
24,O=[N+]([O-])c1cc([N+](=O)[O-])c(CCN2CCOCC2)c([N+](=O)[O-])c1,inactive: 24.9%
25,CCOP(=O)(Nc1ccccc1)OCC,inactive: -1.21%
26,Cc1cc(SC(NC(=O)c2ccc(F)cc2)C(Cl)(Cl)Cl)ncn1 (stereo unspecified),inactive: -2.27%

row,Structure (SMILES),activation
1,Cc1ccc(NP(=O)(Oc2ccccc2F)Oc2ccccc2F)nc1,inactive: -1.54%
2,CN(C(=O)Cc1ccc(Cl)c(Cl)c1)[C@H]1CCCC[C@@H]1N1CCCC1,inactive: -0.75%
3,O=P(Nc1nc2ccc(Cl)cc2s1)(c1ccccc1)c1ccccc1,inactive: 6.54%
4,O=C(O)c1ccccc1[As](=O)(O)O,inactive: 1.96%
5,CC(=O)Nc1ccc([As](=O)(O)O)cc1,inactive: 3.99%
6,Oc1ccccc1CNc1ccccn1,inactive: -1.66%
7,Cc1c2non([O-])c-2c(C)[n+](=O)[n+]1[O-],inactive: -0.08%
8,O=C(NC(Sc1ccncn1)C(Cl)(Cl)Cl)c1ccccc1 (stereo unspecified),inactive: 4.77%
9,CC(C)CC(=O)NC(Sc1ccc(Cl)cc1)C(Cl)(Cl)Cl (stereo unspecified),inactive: -1.67%
10,Nc1cc(N)c2nonc2c1[N+](=O)[O-],inactive: 3.21%
11,Clc1ccc(Cl)c(NC2=NCC(CBr)S2)c1 (stereo unspecified),inactive: 0.43%
12,CN1CCCC(OC(=O)C(c2ccccc2)c2ccccc2)C1 (stereo unspecified),inactive: 0.45%
13,COc1ccccc1OP(=O)(Nc1ccc(C)cn1)Oc1ccccc1OC,inactive: 4.37%
14,Cc1ccc(OP(=O)(Nc2nccs2)Oc2ccc(C)cc2)cc1,inactive: -1.61%
15,CN(C(=O)Cc1ccc(Cl)c(Cl)c1)[C@H]1CCCC[C@H]1N1CCCC1,inactive: 5.82%
16,Cc1ccc(N/C(=N/P(=O)(N2CCOCC2)N2CCOCC2)N2CCOCC2)cc1,inactive: 3.06%
17,NC(=O)c1cc([N+](=O)[O-])cc([N+](=O)[O-])c1N,inactive: 4.49%
18,CC1CCN(C(=O)Oc2c(Cl)cc(Cl)c3cccnc23)CC1,inactive: 7.25%
19,CC(C)=N/N=C(\N)N[N+](=O)[O-],inactive: 2.23%
20,CN(C)C(=O)OCCc1n(C)cc[n+]1C,inactive: -1.66%
21,CCN(/C(=N/P(=O)(N1CCOCC1)N1CCOCC1)N1CCOCC1)c1ccc(OC)cc1,inactive: 0.4%
22,Nc1ccc([As](=O)(O)c2ccc(N)cc2)cc1,inactive: -1.94%
23,C[N+]1=C2C=CC=CC=C2SC12C([N+](=O)[O-])=CC([N+](=O)[O-])=C[C-]2[N+](=O)[O-] (stereo unspecified),inactive: 23.3%
